AlphaSeq binding of Ab-95 light chain variants to a spike HR2 peptide

Target peptide (SARS-CoV-2 spike, HR2 region): PDVDLGDISGINAS

Each scFv is VH, a (GGGGS)3 linker, VL, as in the parent Ab-95, and differs from it in the CDRs of the light chain only.
VH: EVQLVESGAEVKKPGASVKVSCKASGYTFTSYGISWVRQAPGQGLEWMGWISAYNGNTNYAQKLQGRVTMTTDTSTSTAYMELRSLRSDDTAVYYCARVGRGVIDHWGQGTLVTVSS
VL: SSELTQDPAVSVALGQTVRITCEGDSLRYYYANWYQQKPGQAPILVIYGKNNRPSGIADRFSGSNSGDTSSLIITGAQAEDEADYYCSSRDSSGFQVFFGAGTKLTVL

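The starting antibody came from a phage panning campaign against this peptide. AAYL52 was designed without a model: most single CDR substitutions and a random sample of double and triple ones. The scFvs were displayed on barcoded MATa yeast, the peptide on MATalpha yeast. After mating in shaken culture at 30 °C for 16 h, diploids were selected and their barcode pairs sequenced. Scores were corrected for input abundance and mapped to Kd with protein pairs of known affinity run in the same pool. The assay was run in three technical replicates.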

Variants are written as CDR1, CDR2 and CDR3 of the light chain (limits as in the source). Parent: EGDSLRYYYAN, GKNNRPS, SSRDSSGFQVF.
This list gathers variants with a substitution at S88 (VL, numbered from residue 1).
The read-out is the apparent dissociation constant on a log10 scale (nM): the lower, the stronger.
"ND" marks a missing value. The strain was present, yet no cells mated with the target were sequenced in that replicate, which points to weak or no binding.
As a blank, each scFv also met three strains without target: over library AAYL52, 28% of these pairings were detected, typically at 3.91 and seldom below 2.90.

With EGISLRYYYAN | GKNNRPS | HSRDSCGFQVF the result was ND, ND, 4.33.
With EGDSLWYYYAN | GKNNRPS | ASRDSSGFMVF the result was 3.00, 2.34, 2.57.
With EGDSLRYYYAN | GQNNRIS | DSRDSSGFQVF the result was 3.22, 3.25, ND.
With EGDSLRYYYAN | GKNNRPS | WSRDSSGFQVF the result was 2.50, 2.78, 2.15.
With EGMSLRPYYAN | GKNNRPS | WSRDSSGFQVF the result was 3.95, 4.07, 4.56.
With EGDSLRYYQAN | GKNNRPS | CSRDSEGFQVF the result was 1.85, 1.75, 1.10.
With EGDSLRYYYEN | GKNNRKS | ESRDSSGFQVF the result was 3.40, ND, 3.95.
With EGDSLRYVYAN | GKNNRKS | MSRDSSGFQVF the result was 2.73, 2.83, 2.75.
With EGDSLRYIDAN | GKNNRPS | ASRDSSGFQVF the result was 1.75, 1.71, 1.23.
With EGDSLRYYYAN | GKNNRPV | LSRDSSGFQKF the result was 4.14, ND, 4.16.
With EGDDLRYYYAN | GKNNRPS | GSRDSSGFQVI the result was 5.11, 4.42, ND.
With EGDSLRYYYAN | GKNNRPS | YSRDSSGSQLF the result was ND, 3.93, ND.
With EGDSLRYLYAN | GKNSRPS | FSRDSSGFQVF the result was 3.33, 3.83, 3.67.
With EEDYLRYYYAN | GKNNRPS | KSRDSSGFQVF the result was 2.92, ND, ND.
With FGDSLRYYYAN | GKNNRPS | ISRDSSGFQCF the result was ND, ND, ND.
With EGDSLQYYYAN | GKNNRPS | YSMDSSGFQVF the result was 3.95, 2.97, 2.89.
With EGDSLRYYYAN | GKNNRPD | ESRDSSGFQVF the result was 2.55, 2.79, 1.97.
With EGDSLRCYYAD | GKNNRPS | ISRDSSGFQVF the result was ND, 3.91, ND.
With EGDSSRYYYLN | GKNNRPS | ASRDSSGFQVF the result was ND, 5.70, ND.
With EGDSLRYYYAN | GKNNRMS | VSRDSSGFQVF the result was 3.64, 3.38, 2.88.
With EGDSLRYGYAN | GKNNRPS | YSRYSSGFQVF the result was 1.49, 1.52, 1.26.
With EMDSLRYYYAN | GKNNEPS | VSRDSSGFQVF the result was ND, ND, ND.
With EGDSMRYYYAN | GKNNRQS | ISRDSSGFQVF the result was 4.96, 5.07, 4.00.
With EGYSLRYYYAN | GKNNRPS | QSRDVSGFQVF the result was 3.68, 2.96, ND.
With EGDYLRYYYAN | GKNNRPS | TSRDSSEFQVF the result was 3.56, ND, 3.35.
With EGDSLRSYYAN | GKNNRPS | YSRDSSGFQEF the result was ND, ND, ND.
With KGVSLRYYYAN | GKNNRPS | MSRDSSGFQVF the result was 1.72, 1.88, 1.02.
With EGDSLRYYYAN | GMNNRPS | VSRDSSHFQVF the result was ND, ND, ND.
With EEDSLRYYYAN | GKNNRPS | CSRCSSGFQVF the result was 3.77, ND, 3.86.
With EGDSLMYYYAN | GKNIRPS | KSRDSSGFQVF the result was ND, ND, ND.
With EGDRLRYYYAN | GDNNRPS | HSRDSSGFQVF the result was 5.13, 4.13, ND.
With EGDSCRYEYAN | GKNNRPS | ISRDSSGFQVF the result was ND, ND, ND.
With ERDSLRYYYAN | GKNNRPS | ASVDSSGFQVF the result was ND, 3.97, ND.
With EGDSLRYYYAN | GKNNRRS | QSRDSMGFQVF the result was 4.92, ND, ND.
With EGDSLRYYYAN | GKNNRKS | GSRDSSGFQVP the result was ND, 3.98, ND.
With EGDSLSYYYAN | GKNNRPS | PSRFSSGFQVF the result was 4.83, 3.58, 3.57.
With EGDSLRYYYAN | GKNNRNS | YSRDPSGFQVF the result was 3.48, 4.42, ND.
With EGDSDRYYYAN | GKNNRPS | YSRDSLGFQVF the result was 4.17, 3.08, ND.
With EGDSLRYYYAN | GKNNRPS | WSRDSSGFIVF the result was 3.66, 4.52, ND.
With EGDSLFYYYAN | GKENRPS | QSRDSSGFQVF the result was ND, ND, 4.06.
With EGDSLTYYYAN | GKNNRPS | PSRDSSGGQVF the result was 4.21, 3.02, 2.71.
With EGDSLRYYYAN | RKNNRPS | RSRDSSGFQVV the result was 3.60, ND, ND.
With EGDSLRYYYAN | GKNNRPE | CSRGSSGFQVF the result was 3.74, 2.45, 3.09.
With EGDSLAYYYAD | GKNNRPS | ESRDSSGFQVF the result was ND, ND, ND.
With EGDSLRYYYAY | GKGNRPS | ASRDSSGFQVF the result was 2.70, 2.28, 2.74.
With FGDSLRWYYAN | GKNNRPS | VSRDSSGFQVF the result was 4.21, 2.72, 4.19.
With EGDSLRYYYHN | GKNNRPS | ISRDSSGFQVI the result was ND, ND, ND.
With KGDSLRYKYAN | GKNNRPS | LSRDSSGFQVF the result was 2.23, 2.11, 1.83.
With EKDSLRYYYAN | GKNNRPS | MSRDSSGFQVF the result was 3.93, 3.65, 3.46.
With EGDSLRYYYAV | SKNNRPS | QSRDSSGFQVF the result was 3.35, ND, ND.
With EGDSLRYYYAN | NKNNRPS | FSRDSSGQQVF the result was ND, 4.66, ND.

Extract of 6 entries:

The variant EGDSLRYYYAN | GKNNRPS | WSRDSSGFQVF gave 2.50, 2.78, 2.15.
The variant EGDSLQYYYAN | GKNNRPS | YSMDSSGFQVF gave 3.95, 2.97, 2.89.
The variant EGDSCRYEYAN | GKNNRPS | ISRDSSGFQVF gave ND, ND, ND.
The variant EGDSLRYIDAN | GKNNRPS | ASRDSSGFQVF gave 1.75, 1.71, 1.23.
The variant EGDRLRYYYAN | GDNNRPS | HSRDSSGFQVF gave 5.13, 4.13, ND.
The variant EGDSLRYVYAN | GKNNRKS | MSRDSSGFQVF gave 2.73, 2.83, 2.75.

Values reported by Engelhart et al. 2022, doi:10.1038/s41597-022-01779-4 (FLAb copy).